# scFv variants of Ab-14 (light chain) against a SARS-CoV-2 spike peptide

Target: peptide PDVDLGDISGINAS, taken from heptad repeat 2 (HR2) of SARS-CoV-2 spike.

Parent: Ab-14, a human scFv built as VH, the linker GGGGSGGGGSGGGGS, VL. Only the CDRs of the light chain vary.
VH: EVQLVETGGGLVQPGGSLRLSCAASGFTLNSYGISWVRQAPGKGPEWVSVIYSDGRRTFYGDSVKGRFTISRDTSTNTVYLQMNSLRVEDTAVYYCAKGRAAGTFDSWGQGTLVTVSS
VL: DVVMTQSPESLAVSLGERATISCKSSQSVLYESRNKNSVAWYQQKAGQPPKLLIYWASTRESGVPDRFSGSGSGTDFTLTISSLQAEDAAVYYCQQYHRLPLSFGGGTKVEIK

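The starting antibody came from a phage panning campaign against this peptide. In library AAYL50, one, two or three CDR residues were substituted; doubles and triples were drawn at random. AlphaSeq pools MATa yeast showing the antibodies with MATalpha yeast showing the peptide. The frequency of each diploid, read from paired DNA barcodes, reflects how well the two displayed proteins bind. Read counts were normalised to the haploid input and turned into Kd by a linear fit to BCL2-family pairs of known affinity, for each replicate. Mating was done three times.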

Variants are written as CDR1, CDR2 and CDR3 of the light chain (limits as in the source). Parent: KSSQSVLYESRNKNSVA, WASTRES, QQYHRLPLS. Each Kd is an estimate from the mating assay, the geometric mean of the replicates in which the pair was seen; lower is stronger. An entry "not detected" has no value in the source: the pair was not observed among the diploids in any replicate. This suggests poor binding but is not conclusive. In this assay the parent's reference entry averaged 4.4 nM; its copy inside this library read 48 nM. As a blank, each scFv also met three strains without target: over library AAYL50, 18% of these pairings were detected, typically at 15 µM and seldom below 970 nM.

CDR-L1 | CDR-L2 | CDR-L3 | apparent Kd | detected
KSSQSVLRESRNKNSVA | WASLTES | QQYHRLPLS | 36 µM | 2/3
KSSQSVLYESRWKNSVA | WDSTRES | QQYHLLPLS | not detected | 0/3
KSSQSCLYESRNKNHVA | WASTRES | QQYHRLNLS | 640 nM | 3/3
KESQSVLYESRNKVSVA | WASTVES | QQYHRLPLS | 1.5 µM | 1/3
KSDQSVLYESRNKNSVA | WASTRES | QMYHRLPLS | 14 nM | 3/3
KSSQSVLYESRNKNFVA | WAYTIES | QQYHRLPLS | 26 µM | 2/3
KSSQSVLYESRNKNSVA | WASTRES | QQYHRLFLD | 26 nM | 3/3
KSSQSVLQESRNKNSVA | WASTRES | RQYHRLPLS | 100 nM | 3/3
KSSQSVLYESRNKNSLQ | WASTRES | KQYHRLPLS | 890 µM | 1/3
KSSQSVLYTFRNKNSVA | WASTRES | QQYHRLPLS | 420 nM | 3/3
KSSQSVLYESRNKNSVA | WASQREA | QQYHRVPLS | not detected | 0/3
PSSQSVLYESRNKNSVA | WASTRES | QQYFRYPLS | not detected | 0/3
KSSQSTLYESRNKNWVA | WESTRES | QQYHRLPLS | not detected | 0/3
KSSQSVLSESRNKNSVA | QASTRES | QYYHRLPLS | 160 nM | 3/3
KSSQGVLYEKRNKNSVA | PASTRES | QQYHRLPLS | not detected | 0/3
KYSQSVLYESRNKNSVA | WASTHES | QQYHRLVLS | 1.2 µM | 1/3
KSDQSVLYESRNKLSVA | WASTREL | QQYHRLPLS | 400 nM | 3/3
KSSSSVLYESRNKNSVA | WASTRHS | QQYHRLPLS | 2.2 µM | 3/3
KSSQRVLYESKNKNSVA | WASTRES | QQYHRRPLS | 47 nM | 3/3
KSSQSVLYESRNKNSVA | WACTRES | QQPHRLPLQ | 41 µM | 3/3
DSSQSVLYESRNKNCVN | WASTRES | QQYHRLPLS | not detected | 0/3
KSSQSVLYESRNKNSVA | WASTRES | QQMHRLPMS | 32 nM | 3/3
KSSQSVLYESRNKNSRA | WASTREA | QQEHRLPLS | not detected | 0/3
KSSQSVLYESRNKGGVA | WAGTRES | QQYHRLPLS | 12 µM | 2/3
KSSQSVLCESRRKNSVA | WYSTRES | QQYHRLPLS | not detected | 0/3
KSTQCVLYESRNKNSVA | WASTRES | QTYHRLPLS | 280 µM | 1/3
KISQSVLYESRNKNSVH | WASTRES | QQYERLPLS | not detected | 0/3
YSSQSVLYEVRNKNSVA | WARTRES | QQYHRLPLS | 81 µM | 1/3
YTSQSVLYESRNANSVA | WASTRES | QQYHRLPLS | not detected | 0/3
KSSQSVLEESRNKNSVA | WASTRES | QLFHRLPLS | 11 µM | 1/3
KSRQSVLYEARNKNSVC | WASTRES | QQYHRLPLS | 380 µM | 3/3
KSSQSVLYESRNKVSVA | WDSTRES | QQYHRRPLS | 45 µM | 3/3
KSSQSVLDESRNKNSVA | WASTRES | DQYHRLPLS | 2.4 nM | 3/3
KSSQSVFYESRNKNSYA | WASQRES | QQYHRLPLS | 47 µM | 3/3
KSSQSVLYERRNKNSVA | WASTRES | QQYKRMPLS | 22 µM | 2/3
KSSQSVLYESRNINSVA | WPSTRES | QQYHFLPLS | not detected | 0/3
KSIQSVLYESRNKNSVP | WASTRES | QQEHRLPLS | not detected | 0/3
KSSQPVLYESRNKNSVA | WASTDES | QYYHRLPLS | not detected | 0/3
KSSQSVLYEPRNINCVA | WASTRES | QQYHRLPLS | 420 nM | 1/3
KSSQSVLYESRNKNSVA | WWSTRES | KQFHRLPLS | 150 µM | 3/3
KSSQSVLYESRNKNSVA | CASTRES | QQYVRLQLS | 95 nM | 3/3
KSSKSVLYESRNKNSVA | WKSTRES | QQYHRNPLS | 650 nM | 1/3
KSSQSVLYESRNKNSVA | WAWTRES | DQYARLPLS | not detected | 0/3
KSAQSVLYESRNKNSVA | WAVTRES | QQYERLPLS | 2.4 µM | 3/3
KSSQSVLYESRNFNSVA | WASTRES | QQYHRRPLS | 120 µM | 1/3
KSSYSVLYESRNWNSVA | WASTRES | QQYHRLPLS | 13 nM | 3/3
KSYQSVLHESRNKNSVA | WASSRES | QQYHRLPLS | 830 nM | 3/3
KLSQSVLYESRNKNSVQ | WASTRES | QDYHRLPLS | 1.5 µM | 3/3
WSSQSVLYESRNKNSNA | WASTRES | QQYHRLRLS | 11 nM | 3/3
SSSQSVLYESRNKNSVD | WASTRES | QQYHRCPLS | 1.6 µM | 1/3
KSTQSVLYESRNKNSVG | WASTRES | QQYHRGPLS | not detected | 0/3
KSSGSVLYESRNKWSVA | WASTRES | QQRHRLPLS | 12 µM | 1/3
NSSQSVLYESRNKNSVA | WASMRWS | QQYHRLPLS | 5.4 nM | 3/3
KSSQSVLYESRNDNMVA | WASTREF | QQYHRLPLS | 13 µM | 3/3
KSSQSVNYEPRNKNSPA | WASTRES | QQYHRLPLS | not detected | 0/3
KSSQSVLYESRNKNSVA | WASTDES | QHYHRLPQS | 110 µM | 1/3
KSSQSVLYESRNKNSVA | WAAARED | QQYHRLPLS | 810 nM | 3/3
KSSQSVLYESRNCNSVA | WASTRES | QQYHNVPLS | 66 µM | 2/3
KSSQSVLYISRNKNSVA | WASTDES | QQYHRLPLS | not detected | 0/3
KCSQSVLYESRNKNSVA | WASYRES | QQYHRLPLH | 7.4 nM | 3/3
KSSQSVLYHSRNKSSVA | WASTRES | QQYHRLPLS | 430 nM | 2/3

3 of these entries, quoted again:

CDR-L1,CDR-L2,CDR-L3,apparent Kd,detected
KSSQSVLQESRNKNSVA,WASTRES,RQYHRLPLS,100 nM,3/3
YSSQSVLYEVRNKNSVA,WARTRES,QQYHRLPLS,81 µM,1/3
KSSGSVLYESRNKWSVA,WASTRES,QQRHRLPLS,12 µM,1/3

The measurements come from Engelhart et al. 2022 (doi:10.1038/s41597-022-01779-4) through the FLAb antibody collection.